This data set addresses p-glycoprotein (Pgp) (Homo sapiens, UniProt P08183). The conditions noted are these: iBBB; 5 μM reversine 121.

Sequences of proteins named here, by UniProt entry; tags and fusion partners are left off.
UniProt P08183, whole entry: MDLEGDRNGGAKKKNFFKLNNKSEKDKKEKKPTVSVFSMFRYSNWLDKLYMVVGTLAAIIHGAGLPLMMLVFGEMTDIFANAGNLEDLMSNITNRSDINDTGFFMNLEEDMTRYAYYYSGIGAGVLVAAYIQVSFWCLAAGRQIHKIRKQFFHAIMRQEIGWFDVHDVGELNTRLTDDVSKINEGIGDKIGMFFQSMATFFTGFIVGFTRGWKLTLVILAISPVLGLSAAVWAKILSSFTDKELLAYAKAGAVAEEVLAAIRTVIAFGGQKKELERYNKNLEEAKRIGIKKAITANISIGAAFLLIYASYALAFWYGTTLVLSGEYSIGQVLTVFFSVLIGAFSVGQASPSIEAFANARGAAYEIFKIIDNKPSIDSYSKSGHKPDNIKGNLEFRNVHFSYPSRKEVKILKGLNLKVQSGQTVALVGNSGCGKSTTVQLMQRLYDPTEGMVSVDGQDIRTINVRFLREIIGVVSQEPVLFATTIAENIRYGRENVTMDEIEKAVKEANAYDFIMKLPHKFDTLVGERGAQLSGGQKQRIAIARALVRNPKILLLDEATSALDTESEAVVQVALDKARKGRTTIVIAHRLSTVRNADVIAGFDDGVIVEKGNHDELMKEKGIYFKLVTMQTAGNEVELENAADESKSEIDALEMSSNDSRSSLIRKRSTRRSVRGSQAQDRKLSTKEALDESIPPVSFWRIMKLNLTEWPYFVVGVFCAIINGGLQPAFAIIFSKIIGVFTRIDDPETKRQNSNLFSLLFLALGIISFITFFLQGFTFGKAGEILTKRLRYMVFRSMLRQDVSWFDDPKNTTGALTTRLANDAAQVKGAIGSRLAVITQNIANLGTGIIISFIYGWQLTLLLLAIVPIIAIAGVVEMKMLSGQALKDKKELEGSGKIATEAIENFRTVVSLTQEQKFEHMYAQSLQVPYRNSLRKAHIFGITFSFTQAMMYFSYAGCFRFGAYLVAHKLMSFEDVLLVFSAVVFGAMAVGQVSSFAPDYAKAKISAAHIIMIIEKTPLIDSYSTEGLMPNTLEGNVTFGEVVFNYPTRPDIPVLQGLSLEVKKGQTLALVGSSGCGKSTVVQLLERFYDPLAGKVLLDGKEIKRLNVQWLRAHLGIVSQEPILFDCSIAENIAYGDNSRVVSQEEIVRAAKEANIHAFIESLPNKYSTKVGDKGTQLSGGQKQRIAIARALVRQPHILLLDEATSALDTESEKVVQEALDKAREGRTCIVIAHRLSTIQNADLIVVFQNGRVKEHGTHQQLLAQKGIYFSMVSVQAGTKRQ

For the substance reversine 121, the “permeability of rhodamine 123 from the basolateral to apical surface” value is on record as “not”.

These data come from patent US20220090021A1, “IN VITRO HUMAN BLOOD BRAIN BARRIER” (Massachusetts Institute of Technology, priority 2019, published 2022).
